Data published in paper PMC6158167, “Structural analysis of HTL and D14 proteins reveals the basis for ligand selectivity in Striga” (Nature Communications, 2018).

How the values were obtained:
AtHTL–AtMAX2 interaction [1] = target: T1, AtHTL–AtMAX2 interaction (Arabidopsis thaliana, UniProt Q9SZU7)
T1 sequence (Q9SZU7 1-270): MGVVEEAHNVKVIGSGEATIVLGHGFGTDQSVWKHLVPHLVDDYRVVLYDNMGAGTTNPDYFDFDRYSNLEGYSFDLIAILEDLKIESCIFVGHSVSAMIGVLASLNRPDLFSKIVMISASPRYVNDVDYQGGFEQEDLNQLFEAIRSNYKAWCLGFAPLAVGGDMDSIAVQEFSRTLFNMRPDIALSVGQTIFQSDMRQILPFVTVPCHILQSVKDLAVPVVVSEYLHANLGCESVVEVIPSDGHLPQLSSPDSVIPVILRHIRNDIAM
Protocol: (§1) and AtHTL were detected using an anti-GST antibody, as indicated by the black arrows. (b)
(§2) 1/10, 1/20, 1/50, 1/100, 1/1000) of transformed yeast cells was plated on control medium (SD/-
(§3) Leu/-Trp; -LT) and selective medium (SD/-Leu/-Trp/-His/-Ade; -LTHA) in the absence or
(§4) (1 picture or pasted object on this page, not shown here)

ShHTL7 L124F/T190F/C194F = assay: YLG competition assay, ShHTL7 triple mutation; assay type: biochemical, Striga hermonthica; conditions: from Ki in YLG competition assays
Protocol: The YLG assays were conducted as previously described[28] with minor modifications. Ten microliters of 0.1 mg mL^−1 ShHTL7 protein in a reaction buffer containing 20 mM HEPES, pH 7.0, 150 mM NaCl and 80 μL of reaction buffer were mixed in a 96-well black plate (Grenier). Ten microliters of 10 μM YLG was added to the solution and incubated at 25 °C for 1 h prior to measurement. The fluorescence intensity was measured using a SpectraMax® iD5 Multi-Mode Microplate Reader (Molecular Devices). Measurements were performed at room temperature under a 480 nm excitation wavelength, a 530 nm emission wavelength, a manual PMT of 500, and a read height of 1.00 mm. The fluorescence can be detected if YLG is hydrolyzed. The RFU (relative fluorescence unit) was calculated by subtracting the fluorescence of the buffer (without protein) and then dividing by the fluorescence of wild-type ShHTL7. […]
in a previous study6, the enzymes were incubated with YLG at the indicated concentrations. The RFU (relative fluorescence units) was calculated by dividing the fluorescence of hydrolysis at 10 μM YLG by wild type (WT) ShHTL7 after subtracting the fluorescence of the buffer. The Km values were calculated from a Michaelis-Menten plot using GraphPad Prism software and are shown in the plots. […]
The inhibition constant Ki was calculated according to the Cheng-Prusoff equation7. […]

AtHTL–ShMAX2 interaction = AtHTL–ShMAX2 interaction (Arabidopsis thaliana, UniProt Q9SZU7)
Text: (§5) Full-length sequences of ShD14, ShHTL1, ShHTL3, ShHTL4, ShHTL7, and AtHTL were cloned into the pGBKT7 vector as bait (Clontech), and the coding regions of ShMAX2 and AtMAX2 were cloned into the pGADT7 vector as prey (Clontech). MAX2 was supposed to be unstable without ASK1. Therefore, AtASK1 was cloned into the N terminus of ShMAX2 and AtMAX2 with a 16-residue linker for co-expression. The bait and prey plasmids were co-transformed into the yeast (Saccharomyces cerevisiae) strain Y2HGold (Clontech) by the lithium acetate-mediated method. The presence of both plasmids was confirmed by growth on SD/-Leu/-Trp (-LT) plates. […] The plates were incubated for 5 days at 30 °C.
as §1, §2, §3, §4

[2] = tested on: ShHTL1–ShMAX2 interaction
Text: as §5, §1, §2, §3, §4

AtHTL–AtMAX2 interaction [3] = target: T1, AtHTL–AtMAX2 interaction; remark: listed apart in the source
Text: as §5, §1, §2, §3, §4

[4] = tested on: ShHTL1-AtMAX2 interaction
Text: as §5, §1, §2, §3, §4

## CC1=CC(O/C=C2/C(=O)OC3c4ccccc4CC23)OC1=O (racemic) [rac-GR24]
AtHTL–AtMAX2 interaction [1]
  ligand effect on AtHTL-AtMAX2 interaction: enhanced by rac-GR24
ShHTL7 L124F/T190F/C194F
  decrease in rac-GR24 binding affinity, L124F/T190F/C194F vs ShHTL7: > 100 fold
AtHTL–ShMAX2 interaction
  ligand effect on AtHTL-ShMAX2 cotransformant growth: better growth was observed in the presence of rac-GR24 than the control and KAR1
[2]
  ligand effect on ShHTL1-ShMAX2 interaction: significant difference between the control and the presence of KAR1 or rac-GR24 was not observed
AtHTL–AtMAX2 interaction [3]
  ligand effect on AtHTL-AtMAX2 cotransformant growth: better growth was observed in the presence of rac-GR24 than the control and KAR1
[4]
  ligand effect on ShHTL1-AtMAX2 interaction: significant difference between the control and the presence of KAR1 or rac-GR24 was not observed
